Biological target: BRD4-BrD1 (Homo sapiens, UniProt O60885)
Experiment: Isothermal titration calorimetry
Assay type: binding
Settings: ITC

CC(=O)NCCCCn1c2c(c3ccccc31)C(=O)NCC2 [Olinone]
improvement in binding affinity compared to analogs 4a, 4c and 4d: greater than 15 fold
